Test system: Sigma-2 receptor (Rattus norvegicus)
Test: Displacement of [3H]-di-o-tolylguanidine from sigma-2 receptor in rat liver homogenate at 1 uM by liquid scintillation counting

inhibition [%] | SMILES
36 | O=C1CCN[C@H]([C@H]2COC(c3ccccc3)(c3ccccc3)O2)C1 (racemic)
54 | O=C1CCN[C@H]([C@@H]2COC(c3ccccc3)(c3ccccc3)O2)C1 (racemic)

Reference: ChEMBL document CHEMBL3217603, “Synthesis and NMDA receptor affinity of dexoxadrol analogues with modifications in position 4 of the piperidine ring” (Medchemcomm, 2010)
